Assay results: patent publication US8729061B2, “Pyrrolidine derivatives” (Hoffmann-La Roche Inc., priority 2011, dated 2014)

Amino acid sequences for entries named in this document (tags omitted). Residues count along the entry.
UniProt P25774, 115-331: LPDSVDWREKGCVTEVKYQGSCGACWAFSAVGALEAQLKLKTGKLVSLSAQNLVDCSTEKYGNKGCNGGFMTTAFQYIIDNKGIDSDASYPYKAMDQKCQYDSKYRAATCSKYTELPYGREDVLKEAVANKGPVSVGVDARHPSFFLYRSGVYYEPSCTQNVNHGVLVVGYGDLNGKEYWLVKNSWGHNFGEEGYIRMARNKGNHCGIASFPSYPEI
UniProt P43235, 115-329: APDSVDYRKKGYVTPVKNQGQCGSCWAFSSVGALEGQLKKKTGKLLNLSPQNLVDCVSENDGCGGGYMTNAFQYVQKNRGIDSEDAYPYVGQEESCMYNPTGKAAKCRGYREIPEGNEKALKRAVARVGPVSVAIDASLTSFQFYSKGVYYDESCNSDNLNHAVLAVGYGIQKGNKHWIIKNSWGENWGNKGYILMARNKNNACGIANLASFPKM
UniProt P07711, 114-333: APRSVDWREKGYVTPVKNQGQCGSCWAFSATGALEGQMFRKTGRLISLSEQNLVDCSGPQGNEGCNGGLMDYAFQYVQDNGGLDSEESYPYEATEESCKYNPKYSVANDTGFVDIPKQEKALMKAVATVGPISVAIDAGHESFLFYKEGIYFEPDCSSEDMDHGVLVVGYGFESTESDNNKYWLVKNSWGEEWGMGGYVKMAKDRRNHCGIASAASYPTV

Assays:
Type in all cases: biochemical
human Cathepsin S = human Cathepsin S (Homo sapiens (Human), UniProt P25774); test: Cathepsin enzyme inhibition assay (fluorogenic peptide substrate), Cat S; details: enzyme 1 nM, substrate Z-Val-Val-Arg-AMC 20 μM, pH 6.5
Experimental: (§1) Enzyme activity is measured by observing the increase in fluorescence intensity caused by cleavage of a peptide substrate containing a fluorophore whose emission is quenched in the intact peptide.
(§2) Assay buffer: 100 mM potassium phosphate pH 6.5, EDTA-Na 5 mM, Triton X-100 0.001%, DTT 5 mM.
(§3) Enzymes (all at 1 nM): human and mouse Cathepsin S, Cat K, Cat B, Cat L. Substrate (20 μM): Z-Val-Val-Arg-AMC, except for Cat K which uses Z-Leu-Arg-AMC (both from Bachem).
(§4) Excitation 360 nm, Emission 465 nm.
(§5) Enzyme is added to the substance dilutions in 96-well microtitre plates and the reaction is started with substrate. Fluorescence emission is measured over 20 minutes, during which time a linear increase is observed in the absence of inhibitor. IC50 are calculated by standard methods. Inhibition of human Cat S, mouse Cat S, human Cat K, mouse Cat K, human Cat B, mouse Cat B, human Cat L and mouse Cat L have been measured separately. The results obtained for human Cat S, L, K and B for representative compounds of the invention are expressed in the following table in μM.

human Cat K = human Cat K (Homo sapiens (Human), UniProt P43235); test: Cathepsin enzyme inhibition assay (fluorogenic peptide substrate), Cat K; details: enzyme 1 nM, substrate Z-Leu-Arg-AMC 20 μM, pH 6.5
Experimental: as §1, §2, §3, §4, §5

human Cat B = human Cat B (Homo sapiens (Human), UniProt P07858); test: Cathepsin enzyme inhibition assay (fluorogenic peptide substrate), Cat B; details: enzyme 1 nM, substrate Z-Val-Val-Arg-AMC 20 μM, pH 6.5
Experimental: as §1, §2, §3, §4, §5

human Cat L = human Cat L (Homo sapiens (Human), UniProt P07711); test: Cathepsin enzyme inhibition assay (fluorogenic peptide substrate), Cat L; details: enzyme 1 nM, substrate Z-Val-Val-Arg-AMC 20 μM, pH 6.5
Experimental: as §1, §2, §3, §4
Enzyme is added to the substance dilutions in 96-well microtitre plates and the reaction is started with substrate. […] IC50 are calculated by standard methods. Inhibition of human Cat S, mouse Cat S, human Cat K, mouse Cat K, human Cat B, mouse Cat B, human Cat L and mouse Cat L have been measured separately.

Row | SMILES | pIC50 (human Cathepsin S) | pIC50 (human Cat K) | also measured
1 | CC[C@H](NC(=O)[C@@H]1C[C@@H](S(=O)(=O)c2ccc(Cl)cc2C)CN1C(=O)OC(C)(C)C)C(=O)C(=O)NC1CC1 [Example 2, (2S,4R)-tert-butyl 4-(4-chloro-2-methylphenylsulfonyl)-2-((S)-1-(cyclopropylamino)-1,2-dioxopentan-3-ylcarbamoyl)pyrrolidine-1-carboxylate] | 8.95 | – | –
2 | CC[C@H](NC(=O)[C@@H]1C[C@@H](S(=O)(=O)c2ccccc2C(F)(F)F)CN1c1ccccc1[N+](=O)[O-])C(=O)c1nc2ccccc2o1 [Example 5, (2S,4R)-1-(2-Nitro-phenyl)-4-(2-trifluoromethyl-benzenesulfonyl)-pyrrolidine-2-carboxylic acid [(S)-1-(benzooxazole-2-carbonyl)-propyl]-amide] | – | 4.60 | –
3 | CC[C@H](NC(=O)[C@@H]1C[C@@H](S(=O)(=O)c2ccccc2Cl)CN1C(=O)C1(c2ccc(I)cc2)CC1)C(=O)C(=O)NC1CC1 [Example 17, (2S,4R)-4-(2-chlorophenylsulfonyl)-N—((S)-1-(cyclopropylamino)-1,2-dioxopentan-3-yl)-1-(1-(4-iodophenyl)cyclopropanecarbonyl)pyrrolidine-2-carboxamide] | – | – | pIC50 (human Cat B): 6.97
4 | CC(C)[C@H](NC(=O)[C@@H]1C[C@@H](S(=O)(=O)c2ccccc2Cl)CN1C(=O)C1(c2ccc(Cl)cc2)CC1)C(=O)C(=O)NC1CC1 [Example 28, (2S,4R)-1-(1-(4-chlorophenyl)cyclopropanecarbonyl)-4-(2-chlorophenylsulfonyl)-N—((S)-1-(cyclopropylamino)-4-methyl-1,2-dioxopentan-3-yl)pyrrolidine-2-carboxamide] | – | 7.42 | –
5 | CCCCNC(=O)C(=O)[C@H](CC)NC(=O)[C@@H]1C[C@@H](S(=O)(=O)c2ccccc2Cl)CN1C(=O)C1(c2ccc(Cl)cc2)CC1 [Example 31, (2S,4R)—N—((S)-1-(butylamino)-1,2-dioxopentan-3-yl)-1-(1-(4-chlorophenyl)cyclopropanecarbonyl)-4-(2-chlorophenylsulfonyl)pyrrolidine-2-carboxamide] | 9.08 | – | –
6 | CCC[C@H](NC(=O)[C@@H]1C[C@@H](S(=O)(=O)c2ccc(Cl)cc2Cl)CN1C(=O)C1(c2ccc(Cl)cc2)CC1)C(=O)C(=O)NC1CC1 [Example 42, (2S,4R)-1-(1-(4-chlorophenyl)cyclopropanecarbonyl)-N—((S)-1-(cyclopropylamino)-1,2-dioxohexan-3-yl)-4-(2,4-dichlorophenylsulfonyl)pyrrolidine-2-carboxamide] | – | – | pIC50 (human Cat L): 7.93
7 | CCNC(=O)C(=O)[C@H](CC)NC(=O)[C@@H]1C[C@@H](S(=O)(=O)c2ccccc2Cl)CN1C(=O)C1(c2ccc(Cl)cc2)CC1 [Example 43, (2S,4R)-1-(1-(4-chlorophenyl)cyclopropanecarbonyl)-4-(2-chlorophenylsulfonyl)-N—((S)-1-(ethylamino)-1,2-dioxopentan-3-yl)pyrrolidine-2-carboxamide] | – | 6.79 | –
8 | CC(C)[C@H](NC(=O)[C@@H]1C[C@@H](S(=O)(=O)c2ccccc2Cl)CN1C(=O)C1(c2ncc(Cl)cc2F)CC1)C(=O)C(=O)NC1CC1 [Example 58, (2S,4R)-1-(1-(5-chloro-3-fluoropyridin-2-yl)cyclopropanecarbonyl)-4-(2-chlorophenylsulfonyl)-N—((S)-1-(cyclopropylamino)-4-methyl-1,2-dioxopentan-3-yl)pyrrolidine-2-carboxamide] | 9.32 | – | –

pIC50: −log10 of the molar value.
